Drawing on ChEMBL document CHEMBL1125385, “Novel inhibitors of prolyl 4-hydroxylase. 2. 5-Amide substituted pyridine-2-carboxylic acids” (J Med Chem, 1992), this text covers IC50 for 2 molecules.

This experiment deals with Prolyl 4-hydroxylase (Gallus gallus). Briefly: Inhibition of Prolyl 4-hydroxylase activity in cultured embryonic chick tendon cells; NA=Not active.

On to `Cc1ccc(C(=O)Nc2ccc(C(=O)O)nc2)cc1`, for which the IC50 result was “Not Active”. With `O=C(Nc1ccc(C(=O)O)nc1)c1ccc(F)cc1` the entry was “Not Active”.
